## Ab-14 heavy chain CDR variants: yeast mating affinities

Data: MIT Lincoln Laboratory AlphaSeq set, Engelhart et al. 2022, doi:10.1038/s41597-022-01779-4, as distributed in FLAb.

Antigen: PDVDLGDISGINAS, a 14-residue peptide of the SARS-CoV-2 spike HR2 region.

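The starting antibody came from a phage panning campaign against this peptide. The library (AAYL49) carries one to three amino acid substitutions per variant, with no insertions or deletions. Affinity was read by AlphaSeq, a pooled yeast mating assay with surface-displayed partners. After mating in shaken culture at 30 °C for 16 h, diploids were selected and their barcode pairs sequenced. A regression on co-assayed BCL2-family reference pairs converts the normalised counts of each replicate to an apparent Kd. Each pool was mated in three replicate cultures.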

The variants keep the light chain, the linker and the frameworks of Ab-14 (scFv order VH, three GGGGS repeats, VL).
VH: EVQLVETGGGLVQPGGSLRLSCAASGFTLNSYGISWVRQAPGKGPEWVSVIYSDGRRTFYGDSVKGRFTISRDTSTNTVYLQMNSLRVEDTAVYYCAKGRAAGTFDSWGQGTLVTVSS
VL: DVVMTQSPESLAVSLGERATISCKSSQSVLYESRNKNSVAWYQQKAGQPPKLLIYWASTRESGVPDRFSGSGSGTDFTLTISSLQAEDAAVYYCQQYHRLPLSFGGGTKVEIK

Variants are written as CDR1, CDR2 and CDR3 of the heavy chain (limits as in the source). Parent: GFTLNSYGIS, VIYSDGRRTFYGDSVK, GRAAGTFDS. Each Kd is an estimate from the mating assay, the geometric mean of the replicates in which the pair was seen; lower is stronger. A pair that was not seen in any replicate is written "nd"; this usually means weak binding, but a binder can also be missed. As a blank, each scFv also met three strains without target: over library AAYL49, 15% of these pairings were detected, typically at 11 µM and seldom below 680 nM.

CDR-H1,CDR-H2,CDR-H3,apparent Kd,seen in
GFTLNSYGIS,VIYSDGRDTFYGDDVK,GRADGTFDS,290 µM,1 of 3
GFTLNSYGIS,VIYSDGERTFYWDSVK,GRAAGTFDS,nd,0 of 3
GFTLNSYGIS,VIYSDGRRHFYGDSVK,GRLAGTFPS,540 µM,1 of 3
GFTLNSYGIS,VIYSDGRRTFYVASVK,GRAAFTFDS,11 µM,1 of 3
GFTLNSYGIS,VIYSDGRRTFEGDCVK,GRAAGTFNS,nd,0 of 3
GFTLNSYGIS,DKYSDGRRTFYGDSIK,GRAAGTFDS,nd,0 of 3
GFTLNSYGES,VIYSDGRRTFYGDAVK,GRAAGEFDS,nd,0 of 3
GFTLNSYGIA,VIYSDGRRTFYGFSVL,GRAAGTFDS,23 µM,1 of 3
GFTLNSYGIS,VIYSDARRTFYRDDVK,GRAAGTFDS,53 µM,1 of 3
GFTLNSYGIY,VICSDGRRTFKGDSVK,GRAAGTFDS,nd,0 of 3
GFTLNSYGIS,VEYSDVRRTFYGDSVK,GRAAGNFDS,1.1 µM,1 of 3
GFTLNSYHGS,VIYSDGRRTFYGDSVK,GRDAGTFDS,8.4 µM,1 of 3
GFTLNSYGIS,VIYSHGVRTFYGDSVK,GRAAGDFDS,400 µM,1 of 3
GFTLNSYGIS,VISSDGHRTFYGDVVK,GRAAGTFDS,nd,0 of 3
KFTWNSYGIS,VIYSDGRRTFYGDSVK,GRAAGTFDS,nd,0 of 3
GFTLNSYGIS,VIYSDGRRTYYYDSVK,GRAAGTFDS,nd,0 of 3
KFTLNSYGDS,VIYSDGRRTFYGDSVK,LRAAGTFDS,nd,0 of 3
NFTLNFYGIS,VIYSDGRRTFYGDSVK,GRAAGTFDS,82 µM,2 of 3
GFTANSYGIS,VIYSDGRRTFYGDSVK,GRAATVFDS,nd,0 of 3
RFVLNSYGIS,VIYSDGRRTFYGDSVK,GRAAGTFDE,59 nM,3 of 3
GFTLNSYGIS,VIRSDGRRTFYGDSVK,GRAAKCFDS,39 µM,1 of 3
GFTLNYYGIA,VIYSDGRRTFQGDSVK,GRAAGTFDS,nd,0 of 3
GFTLNSYGIS,HIYSDGRRTFYGDSQK,GRAAGTFDS,340 µM,1 of 3
GFTLNSYGIS,VIYSDRRRTFYGDSVK,MRAAGTFDS,500 µM,1 of 3
GFTLNSYGIS,VIYSRGCRTFYSDSVK,GRAAGTFDS,260 µM,1 of 3
GFTLNSYGIM,CIYSDNRRTFYGDSVK,GRAAGTFDS,nd,0 of 3
GFTLQSYGIS,VAYSDGRRTFYGDSVK,GRTAGTFDS,7.2 nM,3 of 3
GFTYNAYGIS,VIYSDGRMTFYGDSVK,GRAAGTFDS,40 µM,2 of 3
GRTLNSYGQS,VIYSDGRRTFYGDSVK,GRAAGTFTS,190 µM,2 of 3
GVTLNSYGIS,VIYSDGRRPFYGDSVK,GRASGTFDS,nd,0 of 3
GFTLNSYGIS,VIYSDGRRTFYGDVVK,GGAAKTFDS,nd,0 of 3
GFFLNSRGIS,VIYSDGRRTFYGDSVK,GRAAGTFDL,nd,0 of 3
GFTLNSYGIS,VIRSDGRRTFYGDSVK,GRAATTFDA,nd,0 of 3
GFTLNSYGNS,VIYSDGRRTFYGDSVK,GRAATFFDS,27 µM,1 of 3
GFTGNSYGIS,VIYSDGRRTFYGDWVK,GRTAGTFDS,nd,0 of 3
EFTLNSYGIS,VIYSDGRRTFYGDSVK,IRKAGTFDS,200 nM,3 of 3
GNTLNSYGIW,VIYSDGRRTFYGDSVK,GRAAGTHDS,nd,0 of 3
GFTLNSYGIS,VIYSDSRRKEYGDSVK,GRAAGTFDS,2.2 µM,1 of 3
GFTLNSYGIS,IIYSAGRITFYGDSVK,GRAAGTFDS,360 µM,1 of 3
GFTLNLYGIS,VIDSDGRRTFYGCSVK,GRAAGTFDS,nd,0 of 3
GFTLNSYRIS,VIQSTGRRTFYGDSVK,GRAAGTFDS,nd,0 of 3
GFTLNSYGIS,VIHSMGRRTFYGDSQK,GRAAGTFDS,nd,0 of 3
GFTLNFYGIS,VIYSPGRRTFYGDSVK,GRFAGTFDS,nd,0 of 3
GFTLNSYGDS,VIYSDARRTFYGDSVK,GRAAGTFDP,nd,0 of 3
GFTLNFYGIV,VIYSDGRRNFYGDSVK,GRAAGTFDS,2.1 µM,1 of 3
GFTLNSYGIS,VIYSHGRRTFYADSVK,GRAAGTFWS,nd,0 of 3
GFTLNSYWIS,VIYSDGPRTFYGDSVI,GRAAGTFDS,nd,0 of 3
GFTLNSIGIS,VIYSDGRRFFYGDSVK,GWAAGTFDS,nd,0 of 3
GFTLNSYGIS,VIYSDGRRTFYGDSVK,GRVAGKFPS,nd,0 of 3
GFTLNSYGME,VIYSDGRRTFYGDSVK,LRAAGTFDS,nd,0 of 3
GFTLNSYGNS,VIYSVGRRTFYSDSVK,GRAAGTFDS,nd,0 of 3
GFDLNSYGIS,VIYSDGRRTFYGDSVK,VRMAGTFDS,1.7 µM,1 of 3
GFTLNSYGIS,VIYSDGRRTFYCDSVK,GRFAGTPDS,nd,0 of 3
GFTLNSYGIS,VWYSDGRRTFYGDSVK,GRVAGTFDS,nd,0 of 3
GFTLNSYGIS,VIYSDGRRTFYGDQAK,GRAAGDFDS,nd,0 of 3
GFTLNSYGIS,VIDSDWRYTFYGDSVK,GRAAGTFDS,220 µM,3 of 3
GFTLNSYGIS,VIYSDGRRTFYGDSHT,GGAAGTFDS,46 µM,2 of 3
GFTLNSYGIS,VIYSDGRRTFYGQSVI,GRAEGTFDS,6.6 µM,3 of 3
GFTLNSYGIS,VIYSDGRRTFYKDSVK,GRAAGGFVS,1.2 µM,1 of 3
GFTLNPYGIS,VIYSDGRRTFYGDSVH,GRAAGTFDY,nd,0 of 3
GFTLNSYGIS,VIYSDWRRTFYGDSVK,GFAAGAFDS,380 nM,1 of 3
GFTVNSYGIS,VIYMDGRRTFYGDSVK,GRAAGTFDS,3.8 µM,1 of 3
GFTLISYGIS,VIKSLGRRTFYGDSVK,GRAAGTFDS,nd,0 of 3
GFTLNSYGIS,KIYSDGRRTFKGDSVK,GRAANTFDS,60 µM,1 of 3
GFTLNSYGNP,VIYSDGRRTFYGDSVK,GRAAGTFDY,nd,0 of 3
GFTLNSYGIS,MIYSDGRVTYYGDSVK,GRAAGTFDS,200 nM,1 of 3
GFTLNSYGIS,VIYPDGLRTFYGDSVK,GRAAGTFDM,580 nM,3 of 3
VFTLYSYGIS,VIYSDGRRTFYGDSVM,GRAAGTFDS,nd,0 of 3
GFRLNSYGIS,VIYSDGRRTFYGDSFK,GRAIGTFDS,10 µM,3 of 3
GFTLNSLGIS,VWYSDGERTFYGDSVK,GRAAGTFDS,nd,0 of 3
GFTLNSYGIS,VISSDGYRTFYGDSVK,GRAAGTDDS,850 nM,1 of 3

The opening 5 entries, copied out:

CDR-H1,CDR-H2,CDR-H3,apparent Kd,seen in
GFTLNSYGIS,VIYSDGRDTFYGDDVK,GRADGTFDS,290 µM,1 of 3
GFTLNSYGIS,VIYSDGERTFYWDSVK,GRAAGTFDS,nd,0 of 3
GFTLNSYGIS,VIYSDGRRHFYGDSVK,GRLAGTFPS,540 µM,1 of 3
GFTLNSYGIS,VIYSDGRRTFYVASVK,GRAAFTFDS,11 µM,1 of 3
GFTLNSYGIS,VIYSDGRRTFEGDCVK,GRAAGTFNS,nd,0 of 3